Experimental properties from OPERA 2.9

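The numbers are reported measurements, compiled and curated for the OPERA QSAR suite. One number stands for a compound and property, with no spread given. Method and conditions are not stated for these values. A value may pool stereoisomers or salt forms, and the file does not say which form was measured. Some entries may be limits or estimates that an upstream database listed as plain numbers.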

Melting points are in °C.
The boiling point refers to atmospheric pressure (760 mmHg), by the definition of the set.
logP is the log10 of the octanol-water partition coefficient; higher is more lipophilic.
Water solubility is log10 of mol/L, nominally at 25 °C; higher is more soluble.
Vapor pressure is log10 of mmHg; the set covers 15 to 30 °C, mostly 20 to 25 °C.
fu is the fraction unbound in human plasma, from 0 to 1.
Clint is human hepatic intrinsic clearance in µL/min per million cells; 0 means that no clearance was seen.
Cells with "–" have no entry in this list.

Listed for CCCCOCC(C)O (stereo not given) [1-Butoxy-2-propanol]: log Kow 1.175 and log vapor pressure -0.1 (log10 mmHg).
Listed for F/C(=C\Cl)C(F)F: MP -82.3 °C and BP 54.25 °C and log Kow 1.9 and log vapor pressure 2.331 (log10 mmHg).
Listed for CCCCCCCCCCCCCCCCCCNC(=O)/C=C\C(=O)O [2-Butenoic acid, 4-(octadecylamino)-4-oxo-, (2Z)-]: MP 111 °C and log Kow 2.53 and water solubility -4.794 (log10 mol/L) and log vapor pressure -5.152 (log10 mmHg).
Listed for CCOC(=O)C(C)(C)c1ccccc1 [ethyl 2-methyl-2-phenylpropanoate]: log Kow 3.5 and water solubility -3.046 (log10 mol/L).
Listed for CCOc1cc(N=Nc2c(Br)cc([N+](=O)[O-])cc2[N+](=O)[O-])c(NC(C)=O)cc1N(CCOC(C)=O)CCOC(C)=O [C.I. Disperse Blue 79]: MP 157 °C and water solubility -8.455 (log10 mol/L).
Listed for Clc1nc(N2CCCCC2)c2nc(Cl)nc(N3CCCCC3)c2n1 [2,6-Dichloro-4,8-di(piperidin-1-yl)pyrimido(5,4-d)pyrimidine]: MP 253 °C and log Kow 2.
Listed for CCOC(=O)C1=NOC(c2ccccc2)(c2ccccc2)C1 [Ethyl 5,5-diphenyl-2-isoxazoline-3-carboxylate]: MP 86.85 °C and log Kow 3.8 and water solubility -5.445 (log10 mol/L) and log vapor pressure -7.782 (log10 mmHg).
Listed for c1ccc2c(NCCCN3CCOCC3)cccc2c1 [4-Morpholinepropanamine, N-1-naphthalenyl-]: MP 72 °C and log Kow 2.765 and water solubility -2.703 (log10 mol/L) and log vapor pressure -4.979 (log10 mmHg).
Listed for CCC(=O)C(C)CO (stereo not given) [3-Pentanone, 1-hydroxy-2-methyl-]: MP -29 °C and log Kow 1.71 and log vapor pressure -0.928 (log10 mmHg).
Listed for CC1=C(C#N)C(C)(C)CC=C1 [1,3-Cyclohexadiene-1-carbonitrile, 2,6,6-trimethyl-]: MP -20.4 °C and log vapor pressure -1.028 (log10 mmHg).
Listed for CC1(C)C(C=CC2=C(Cl)/C(=C/C=C3\N(CCCCS(=O)(=O)[O-])c4ccc5ccccc5c4C3(C)C)CCC2)=[N+](CCCCS(=O)(=O)[O-])c2ccc3ccccc3c21.[NH4+]: MP 180 °C and log Kow 1.2 and water solubility -2.671 (log10 mol/L).
Listed for CCC(N)CO (stereo not given) [1-Butanol, 2-amino-]: log Kow -0.049 and log vapor pressure -0.361 (log10 mmHg).
Listed for CS(=O)(=O)c1ccc(C(=O)C2=C(Sc3ccccc3)C3CCC(C3)C2=O)c(Cl)c1 (stereo not given) [Benzobicyclon]: water solubility -6.932 (log10 mol/L) and log vapor pressure -6.377 (log10 mmHg).
Listed for CC(C)(O)C(=O)c1ccc(OCCO)cc1 [2-Hydroxy-1-[4-(2-hydroxyethoxy)phenyl]-2-methylpropan-1-one]: BP 331 °C and log Kow 0.841 and log vapor pressure -6.28 (log10 mmHg).
Listed for FC(F)OC(F)C(F)(F)F (stereo not given) [Desflurane]: log Kow 1.9 and water solubility -1.676 (log10 mol/L).
Listed for CC(=O)OCCN(CCC#N)c1ccc(N=Nc2ccc([N+](=O)[O-])cc2Cl)cc1: log Kow 4.03 and water solubility -6.646 (log10 mol/L).
Listed for C=CCc1ccc(OC)c(OC)c1 [Methyleugenol]: log Kow 2.57 and fu 0.1416 and intrinsic clearance 26.56 µL/min/10^6 cells.
Listed for O=C1CCCCCCCCCCCC(=O)OCCO1 [1,4-Dioxacycloheptadecane-5,17-dione]: log Kow 4.3 and water solubility -4.245 (log10 mol/L).
Listed for O=C(O[C@@H]1C[C@@H]2C[C@@H]3C[C@H](C1)N2CC3=O)c1c[nH]c2ccccc12 [Dolasetron]: log Kow 2.1 and water solubility -3.094 (log10 mol/L).
Listed for Brc1ccc(Oc2ccccc2Br)cc1Br [2',3,4-Tribromodiphenyl ether]: MP 20 °C and log vapor pressure -4.875 (log10 mmHg).
Listed for CCC[C@@H]1C[C@@H](C(=O)N[C@@H]([C@H]2O[C@H](SC)[C@H](O)[C@@H](O)[C@H]2O)[C@@H](C)O)N(C)C1 [Lincomycin]: water solubility -2.64 (log10 mol/L) and fu 0.24.

Extract of 2 entries:

| compound | name | MP (°C) | BP (°C) | log Kow | water solubility (log10 mol/L) | log vapor pressure (log10 mmHg) | fu | intrinsic clearance (µL/min/10^6 cells) |
|---|---|---|---|---|---|---|---|---|
| O=C1CCCCCCCCCCCC(=O)OCCO1 | 1,4-Dioxacycloheptadecane-5,17-dione | – | – | 4.3 | -4.245 | – | – | – |
| Clc1nc(N2CCCCC2)c2nc(Cl)nc(N3CCCCC3)c2n1 | 2,6-Dichloro-4,8-di(piperidin-1-yl)pyrimido(5,4-d)pyrimidine | 253 | – | 2 | – | – | – | – |

From the experimental data distributed with OPERA 2.9.